For one compound, Tmax results are on record in ChEMBL document CHEMBL4616673 (J Med Chem, 2020).

This series can be described thus: Tmax in Sprague-Dawley rat at 5 mg/kg, iv by LC-MS analysis. It counts as ADME, organism-based. Particulars: in vivo.

In general, Tmax refers to the time at which the peak concentration occurs. For the compound `O=C1c2ccccc2C(=O)c2c1nnn2-c1cc(F)c(-c2ccccc2F)c(F)c1`, the time of peak concentration (Tmax) was found to be 4.8 min.
